Results from patent US20110223202A1, “CATIONIC CORE-SHELL PEPTIDE NONOPARTICLES” (priority 2007, published 2011).

Settings: rat, in vivo, iv
Method: The external water phase was replaced six times.
All procedures involving animals were approved by the DSO IACUC committee and performed according to the guidelines set forth in the National Institutes of Health Guide for the Care and Use of Laboratory Animals (NIH Publications NO. 85-23, revised 1996). […] Animals were sacrificed at 4 h post-injection. They were perfused with Ringer's solution, followed by 4% paraformaldehyde (pH 7.4). Following the perfusion, the brains were removed and kept in a similar fixative for 2 h. They were then kept in 0.1M phosphate buffer containing 20% sucrose overnight at 4° C. Frozen coronal sections of the cerebrum of 30 μm thickness were cut and rinsed in PBS with a cryostat and mounted on slides.

With FITC as the substance, how does the “crossing of the blood-brain barrier” value read?
The value was “unable to cross the BBB”.
